This is an account of results in patent US20180237490A1.

For assay [1], the target named is T1, human GLP-1 receptor (human), P43220.
T1 chain: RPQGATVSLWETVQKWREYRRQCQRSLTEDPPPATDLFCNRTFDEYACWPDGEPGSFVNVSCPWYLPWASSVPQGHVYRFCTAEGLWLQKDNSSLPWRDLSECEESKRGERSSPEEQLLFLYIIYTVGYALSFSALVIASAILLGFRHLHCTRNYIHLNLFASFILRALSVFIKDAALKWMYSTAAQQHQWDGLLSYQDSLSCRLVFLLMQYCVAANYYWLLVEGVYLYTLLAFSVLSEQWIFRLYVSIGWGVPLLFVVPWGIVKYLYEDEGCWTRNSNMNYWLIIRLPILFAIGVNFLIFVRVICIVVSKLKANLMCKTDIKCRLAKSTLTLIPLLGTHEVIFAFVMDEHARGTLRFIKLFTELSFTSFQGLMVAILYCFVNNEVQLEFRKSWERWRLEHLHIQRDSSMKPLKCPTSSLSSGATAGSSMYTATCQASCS
In words: cell-based or functional assay.

Assay [2] has as its target human glucagon receptor (human), P47871. Description: cell-based or functional assay.

Regarding HGQGTFTSDYSRYLEEEAVRLFIEWLKNGGPSSGAPPPS (modifications not checked) [oxyntomodulin analog (SEQ ID NO: 4)], the EC50 (nM), cAMP, CHO/GLP-1R in assay [1] came to 5.5 nM.
On to HSQGTFTSDYSRYLDEEAVRLFIEWIRNTKRNRNNIA (modifications not checked) [oxyntomodulin analog (SEQ ID NO: 17)], for which the EC50 (nM), cAMP, CHO/GCGR in assay [2] is over 1000 nM. Also, the EC50 (nM), cAMP, CHO/GLP-1R in assay [1] came out at 97.9 nM.
The corresponding values for HSQGTFTSDYSKYLDEEAVRLFIEWLMNTKRNRNNIA (modifications not checked) [oxyntomodulin analog (SEQ ID NO: 2)] are 12.8 nM and 51.8 nM.
